Experimental findings from paper PMC8551951 (Biophysical Reviews, 2021) are described below.

In the series the test system is MDA-MB-231 and MCF-7.

Consider heparin, for which the cell viability result is reported as “significant cell death”.
